The source of these data is patent US7563899B2, “(S)-N-methylnaltrexone” (Progenics Pharmaceuticals, Inc., priority 2005, dated 2009).

Sequences of proteins named here, by UniProt entry; tags and fusion partners are left off.
UniProt P35372, whole entry: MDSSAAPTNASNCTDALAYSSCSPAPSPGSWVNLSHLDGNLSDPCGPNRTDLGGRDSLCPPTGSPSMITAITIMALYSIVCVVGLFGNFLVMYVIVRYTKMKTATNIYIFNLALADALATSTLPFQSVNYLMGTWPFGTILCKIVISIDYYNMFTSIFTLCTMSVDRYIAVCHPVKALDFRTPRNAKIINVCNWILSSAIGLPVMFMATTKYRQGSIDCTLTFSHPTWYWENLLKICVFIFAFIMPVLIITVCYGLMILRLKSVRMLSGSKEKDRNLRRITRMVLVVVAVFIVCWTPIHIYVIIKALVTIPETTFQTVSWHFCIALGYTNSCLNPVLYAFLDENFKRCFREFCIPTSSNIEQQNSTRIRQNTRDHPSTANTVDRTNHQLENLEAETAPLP

The target in the assay is T1, human μ (mu, MOP) receptor (Homo sapiens, UniProt P35372).
T1 construct: expressed in transfected cells; host or cells: CHO cells
The assay is described as follows: cAMP assay in CHO cells expressing human mu receptor, antagonist assay. Format: cell-based. The settings on record: then forskolin. On the procedure:
Thus full antagonist effect was equivalent to forskolin without any addition of μ-opioid agonist.
Cells were grown to confluence in 96-well plates. Cells were washed and equilibrated in physiological buffer before analysis. 20 ul of drug, 100 uM IBMX and 10 uM forskolin were added and incubated for 25 minutes at room temperature and then the reaction was stopped with the addition of 0.1 N HCl. Extracted cAMP level was determined via competitive EIA assay utilizing alkaline phosphatase. Additional experimental conditions were as described in Toll L., J Pharmacol Exp Ther. (1995) 273(2): 721-7.

For the substance CTOP [reference compound], the “cAMP antagonist assay value (Table IX.2)” value reads like this: (log{M} conc −5.0, then 30 μM DAMGO) 91; (log{M} conc −6.0, then 30 μM DAMGO) 109; (log{M} conc −7.0, then 30 μM DAMGO) 48; (log{M} conc −8.0, then 30 μM DAMGO) 1; (log{M} conc −11.0, then 30 μM DAMGO) −1.
